Literature values in article PMC10718521, “Complexity of αvβ6-integrin targeting RGD peptide trimers: emergence of non-specific binding by synergistic interaction” (RSC Medicinal Chemistry, 2023).

Chains of the proteins cited; added tags and fusions are not shown. Residues count along the entry.
UniProt P06756, 31-992 limits assumed: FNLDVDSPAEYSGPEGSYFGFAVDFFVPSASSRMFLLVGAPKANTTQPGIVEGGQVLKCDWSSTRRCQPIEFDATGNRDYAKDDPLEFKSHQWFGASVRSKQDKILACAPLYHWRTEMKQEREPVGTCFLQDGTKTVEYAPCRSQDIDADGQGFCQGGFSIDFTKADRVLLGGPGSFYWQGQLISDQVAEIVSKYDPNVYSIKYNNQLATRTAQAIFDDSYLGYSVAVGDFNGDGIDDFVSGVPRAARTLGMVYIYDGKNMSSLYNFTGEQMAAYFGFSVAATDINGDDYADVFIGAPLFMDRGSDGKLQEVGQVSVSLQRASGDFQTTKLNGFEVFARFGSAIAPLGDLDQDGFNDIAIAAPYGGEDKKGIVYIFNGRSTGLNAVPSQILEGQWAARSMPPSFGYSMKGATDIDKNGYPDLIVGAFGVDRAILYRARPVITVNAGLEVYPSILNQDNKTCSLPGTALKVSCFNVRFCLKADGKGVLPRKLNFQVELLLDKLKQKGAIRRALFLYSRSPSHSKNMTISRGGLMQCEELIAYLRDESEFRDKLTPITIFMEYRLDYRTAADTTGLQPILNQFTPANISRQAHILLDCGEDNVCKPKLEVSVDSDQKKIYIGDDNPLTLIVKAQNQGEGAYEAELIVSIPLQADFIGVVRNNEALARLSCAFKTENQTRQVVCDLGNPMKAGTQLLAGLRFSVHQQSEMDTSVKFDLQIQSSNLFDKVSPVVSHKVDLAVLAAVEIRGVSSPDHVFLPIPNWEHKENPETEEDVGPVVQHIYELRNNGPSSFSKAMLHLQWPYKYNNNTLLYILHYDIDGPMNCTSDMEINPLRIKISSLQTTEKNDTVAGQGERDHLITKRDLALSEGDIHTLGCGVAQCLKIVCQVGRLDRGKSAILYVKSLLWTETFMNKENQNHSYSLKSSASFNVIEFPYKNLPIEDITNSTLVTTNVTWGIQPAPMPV
UniProt P18564, 22-707 limits assumed: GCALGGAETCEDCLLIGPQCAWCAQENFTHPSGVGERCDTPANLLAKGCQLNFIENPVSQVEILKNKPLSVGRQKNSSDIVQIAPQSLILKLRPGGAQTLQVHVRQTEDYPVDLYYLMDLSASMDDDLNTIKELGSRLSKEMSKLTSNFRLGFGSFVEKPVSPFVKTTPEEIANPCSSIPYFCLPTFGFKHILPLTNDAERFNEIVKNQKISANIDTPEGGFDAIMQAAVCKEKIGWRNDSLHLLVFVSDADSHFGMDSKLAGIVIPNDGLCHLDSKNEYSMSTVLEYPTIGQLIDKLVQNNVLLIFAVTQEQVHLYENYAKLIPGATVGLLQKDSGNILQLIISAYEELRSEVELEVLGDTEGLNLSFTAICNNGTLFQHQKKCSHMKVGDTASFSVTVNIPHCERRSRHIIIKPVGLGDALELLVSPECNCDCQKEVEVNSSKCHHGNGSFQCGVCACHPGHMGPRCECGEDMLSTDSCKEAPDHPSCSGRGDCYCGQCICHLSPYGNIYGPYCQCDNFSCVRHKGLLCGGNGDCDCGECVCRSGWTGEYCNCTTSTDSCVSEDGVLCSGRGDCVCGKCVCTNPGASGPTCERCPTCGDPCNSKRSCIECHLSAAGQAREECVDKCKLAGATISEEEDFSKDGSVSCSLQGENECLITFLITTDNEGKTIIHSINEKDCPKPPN

Molecular target: αvβ6-integrin (Homo sapiens, UniProt P06756+P18564)
Settings: IC50-based; cited from earlier work

Q: For C#CCCC(=O)NCCCC[C@H]1C(=O)N[C@@H](Cc2ccccc2)C(=O)N[C@@H](CCCNC(=N)N)C(=O)NCC(=O)N[C@@H](CC(=O)O)C(=O)N[C@@H](CC(C)C)C(=O)N[C@@H](C)C(=O)N[C@@H](Cc2ccccc2)C(=O)N2CCC[C@@H]2C(=O)N1C, which αvβ6-selectivity over α5β1 is on record?
A: 1330

Q: What about the αvβ6-selectivity over αvβ3 of the same compound?
A: 2490

Q: And the αvβ6-selectivity over αvβ8?
A: 188

Q: What does the source list for C#CCCC(=O)NCCCC[C@H]1C(=O)N[C@@H](Cc2ccc(O)cc2)C(=O)N[C@@H](CCCNC(=N)N)C(=O)NCC(=O)N[C@@H](CC(=O)O)C(=O)N[C@@H](CC(C)C)C(=O)N[C@@H](C)C(=O)N[C@@H](Cc2ccc(O)cc2)C(=O)N2CCC[C@@H]2C(=O)N1C?
A: αvβ6-selectivity over α5β1: 179; αvβ6-selectivity over αvβ3: 261; αvβ6-selectivity over αvβ8: 31
